Experimental data reported in PubChem BioAssay AID651996 (Sanford-Burnham Center for Chemical Genomics, 2013).

Test system: C. elegans VP596 Pgst-4::GFP/RFP ratio, acrylamide-induced, 24 h
Experiment: SKN-1 inhibitor analogs in C. elegans, SAR follow-up, whole organism, GFP/RFP fluorescence ratio, strain VP596 (AID 651996)

IC50: 16.8 µM
SMILES: Cc1ccc2nc(-c3ccc(NC(=S)NC4CC(C)(C)NC(C)(C)C4)cc3)sc2c1
